Laboratory results reported in PubChem BioAssay AID939 (National Center for Advancing Translational Sciences (NCATS), 2007).
The list shows a part of the results, in another mix than the full data. Results filed as inconclusive are left out. Active and inactive are the calls of the source. The call rests on the fitted dose curve; in most records, active means well fitted activation curve with a large enough effect in the main read-out, with a control signal flat; inconclusive means small, poorly fitted or top-dose-only effect, or effect the other way, or a change in a side signal; inactive means no such curve, though single readings can be large or run the other way.

Protein sequences, listed by entry. Tags and fused reporters are not part of them.
UniProt P16473, whole entry, looked up: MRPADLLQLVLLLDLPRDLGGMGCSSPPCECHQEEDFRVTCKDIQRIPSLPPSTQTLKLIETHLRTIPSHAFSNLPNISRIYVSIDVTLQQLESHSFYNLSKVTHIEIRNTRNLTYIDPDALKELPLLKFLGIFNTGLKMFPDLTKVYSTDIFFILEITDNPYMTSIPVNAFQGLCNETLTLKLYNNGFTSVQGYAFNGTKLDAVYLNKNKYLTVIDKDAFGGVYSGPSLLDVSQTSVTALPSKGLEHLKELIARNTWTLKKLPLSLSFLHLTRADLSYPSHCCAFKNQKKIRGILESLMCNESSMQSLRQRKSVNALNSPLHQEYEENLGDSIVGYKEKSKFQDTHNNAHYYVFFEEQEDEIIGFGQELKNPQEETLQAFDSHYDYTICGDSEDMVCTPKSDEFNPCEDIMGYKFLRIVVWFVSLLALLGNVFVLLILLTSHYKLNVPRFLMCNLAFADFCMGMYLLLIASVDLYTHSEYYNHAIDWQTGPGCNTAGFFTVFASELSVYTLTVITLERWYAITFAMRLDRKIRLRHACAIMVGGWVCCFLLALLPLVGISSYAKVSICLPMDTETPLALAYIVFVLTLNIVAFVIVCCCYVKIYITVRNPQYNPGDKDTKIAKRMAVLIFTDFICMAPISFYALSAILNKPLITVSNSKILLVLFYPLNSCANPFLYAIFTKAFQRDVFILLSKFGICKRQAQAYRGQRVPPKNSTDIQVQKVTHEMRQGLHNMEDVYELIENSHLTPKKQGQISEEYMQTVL

Target: Thyrotropin receptor (Homo sapiens) (UniProt P16473)
Assay: Confirmation Concentration-Response Assay for Agonists of the Thyroid Stimulating Hormone Receptor
Conditions: HEK293 TSHR-CNG cells, membrane potential dye, cAMP
Source text: NIH Chemical Genomics Center [NCGC] NIH Molecular Libraries Screening Centers Network [MLSCN] MLSCN Grant: 1 X01 MH080680-01 PI Name: Dr. Marvin Gershengorn, NIH NCGC Assay Overview: Thyroid Stimulating Hormone Receptor TSH is an alpha/beta heterodimeric glycoprotein hormone secreted from the anterior pituitary gland which belongs to the glycoprotein hormone family. The actions of TSH are mediated by a seven-transmembrane receptor, which upon TSH binding couples preferentially to the G-alpha (s) protein (Gs), resulting in activation of adenylate cyclase and increase in cyclic adenosine 3', 5' monophosphate (cAMP). The TSH receptor (THSR) is mainly expressed in thyroid follicular cells and regulates their growth and function. […]
NCGC Assay Protocol Summary: High Throughput Screening. […] 23 nl/well compound or control was then added to the assay plates, which were incubated for additional 30 min before reading a Envision fluorescence plate reader (Perkin Elmer) in bottom-read mode for fluorescence intensity (emission at 590 nm). Keywords: Thyroid-stimulating hormone TSH, TSHR, TSHR agonist, quantitative high throughput screening, qHTS, HTS, probe identification, CNG, cAMP, cyclic nucleotide gated ion channel PubChem
Potency means the concentration at half of the fitted maximal effect.

Cc1nn(-c2ccccc2)c2c1P(=O)(N1CCOCC1)N(C)C(c1ccccc1)=N2 (stereo unspecified)
Potency: active: 10 µM
